Measurements: ChEMBL document CHEMBL1221304, “Proline isosteres in a series of 2,4-disubstituted pyrrolo[1,2-f][1,2,4]triazine inhibitors of IGF-1R kinase and IR kinase” (Bioorg Med Chem Lett, 2010)

Protein sequences, listed by entry. Tags and fused reporters are not part of them. Residues count along the entry.
UniProt P08069, 741-1367 limits assumed: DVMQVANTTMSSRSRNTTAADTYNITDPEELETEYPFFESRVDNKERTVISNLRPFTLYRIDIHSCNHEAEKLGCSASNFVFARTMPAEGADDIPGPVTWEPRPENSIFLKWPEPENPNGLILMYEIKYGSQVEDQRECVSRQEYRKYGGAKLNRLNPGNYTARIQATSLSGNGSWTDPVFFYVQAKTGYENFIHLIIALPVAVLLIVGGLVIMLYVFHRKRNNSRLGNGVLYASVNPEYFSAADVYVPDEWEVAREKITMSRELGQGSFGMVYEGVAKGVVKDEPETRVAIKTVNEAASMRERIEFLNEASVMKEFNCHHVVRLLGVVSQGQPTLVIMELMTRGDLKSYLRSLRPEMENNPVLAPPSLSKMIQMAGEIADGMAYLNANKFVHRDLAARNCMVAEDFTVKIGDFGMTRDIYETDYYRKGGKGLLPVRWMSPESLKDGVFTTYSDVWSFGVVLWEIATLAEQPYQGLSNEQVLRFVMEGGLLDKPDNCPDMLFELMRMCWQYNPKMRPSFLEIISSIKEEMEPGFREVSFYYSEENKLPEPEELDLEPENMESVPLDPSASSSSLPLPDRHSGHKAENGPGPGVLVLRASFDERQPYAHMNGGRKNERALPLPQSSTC
UniProt P08069, 31-736 limits assumed: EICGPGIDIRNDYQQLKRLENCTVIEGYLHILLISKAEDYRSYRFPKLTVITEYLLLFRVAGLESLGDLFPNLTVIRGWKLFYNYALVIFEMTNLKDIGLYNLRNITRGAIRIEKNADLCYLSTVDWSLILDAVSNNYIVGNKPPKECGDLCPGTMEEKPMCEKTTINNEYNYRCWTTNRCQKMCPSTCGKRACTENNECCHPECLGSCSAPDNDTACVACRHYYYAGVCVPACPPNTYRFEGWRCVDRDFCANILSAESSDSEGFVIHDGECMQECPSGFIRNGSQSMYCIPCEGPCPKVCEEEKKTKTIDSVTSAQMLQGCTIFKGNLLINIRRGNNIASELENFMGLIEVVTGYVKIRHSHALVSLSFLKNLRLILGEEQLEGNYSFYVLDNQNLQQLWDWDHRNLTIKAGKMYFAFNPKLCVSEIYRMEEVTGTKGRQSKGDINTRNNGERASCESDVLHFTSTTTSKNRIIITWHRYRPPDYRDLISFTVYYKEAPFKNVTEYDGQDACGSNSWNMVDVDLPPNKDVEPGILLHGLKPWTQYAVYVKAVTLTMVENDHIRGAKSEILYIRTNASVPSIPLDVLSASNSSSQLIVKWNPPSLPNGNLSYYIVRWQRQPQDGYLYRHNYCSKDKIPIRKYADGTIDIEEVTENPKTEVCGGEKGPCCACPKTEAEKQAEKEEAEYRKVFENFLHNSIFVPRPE

Target: Insulin-like growth factor 1 receptor (Homo sapiens, UniProt P08069)
Experiment: Inhibition of IGF1R

O=C(NCc1nc(Nc2cc(C3CC3)n[nH]2)c2cccn2n1)c1ccc(F)nc1
IC50: 5.3 nM
